# Values of other authors, collected in patent US20090062391A1, “Use of a virucidal ointment in the nares for prevention of transmission and contraction of common colds” (priority 2007, published 2009).
# System: rhinovirus
# Details: Hendley et al. [4]
smiles,measurement,value
Oc1c(Cl)cc(Cl)c(Cl)c1Cc1c(O)c(Cl)cc(Cl)c1Cl [hexachlorophene],antiviral activity,performed poorly
